Test results reported in patent US11319304B2, “Pyridine quinoline compounds as MGLUR4 allosteric potentiators, compositions, and methods of treating neurological dysfunction” (Vanderbilt University, priority 2017, dated 2022).

The chains behind the UniProt entries cited, without tags or fusion partners. Residues count along the entry.
UniProt Q14833, 33-912 limits assumed: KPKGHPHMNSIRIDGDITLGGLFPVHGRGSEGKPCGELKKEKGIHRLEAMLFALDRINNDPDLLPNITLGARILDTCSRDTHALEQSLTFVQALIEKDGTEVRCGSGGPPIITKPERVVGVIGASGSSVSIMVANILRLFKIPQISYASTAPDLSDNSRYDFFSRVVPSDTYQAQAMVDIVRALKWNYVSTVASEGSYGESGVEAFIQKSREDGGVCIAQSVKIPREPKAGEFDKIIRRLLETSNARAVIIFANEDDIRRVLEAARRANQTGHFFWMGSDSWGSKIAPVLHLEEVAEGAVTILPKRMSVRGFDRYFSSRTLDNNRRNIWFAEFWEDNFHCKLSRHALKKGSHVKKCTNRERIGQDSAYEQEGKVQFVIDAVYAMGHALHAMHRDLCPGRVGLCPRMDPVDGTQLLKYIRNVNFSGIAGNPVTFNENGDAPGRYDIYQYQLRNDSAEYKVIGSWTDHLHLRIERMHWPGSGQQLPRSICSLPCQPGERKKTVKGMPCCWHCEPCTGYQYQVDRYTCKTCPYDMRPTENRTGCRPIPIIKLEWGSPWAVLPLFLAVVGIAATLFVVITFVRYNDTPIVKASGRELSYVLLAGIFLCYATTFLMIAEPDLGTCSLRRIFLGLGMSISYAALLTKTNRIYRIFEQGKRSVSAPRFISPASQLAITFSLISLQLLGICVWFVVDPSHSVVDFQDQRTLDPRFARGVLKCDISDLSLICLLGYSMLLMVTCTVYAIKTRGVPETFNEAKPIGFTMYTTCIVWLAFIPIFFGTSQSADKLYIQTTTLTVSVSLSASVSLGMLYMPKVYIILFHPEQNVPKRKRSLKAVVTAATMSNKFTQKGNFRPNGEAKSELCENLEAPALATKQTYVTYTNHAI

Molecular target: mGluR4 (Homo sapiens, UniProt Q14833)
Assay: mGlu4 PAM potentiation assay, CHO cells transfected with human mGluR4, Ca2+-sensitive dye fluorescence
Type: cell-based
Conditions: read-out: mGlu4 PAM EC50
Description: The disclosed compounds and compositions can be evaluated for their ability to act as a potentiator of metabotropic glutamate receptor activity, in particular mGluR4 activity, by any suitable known methodology known in the art. For example, Chinese Hamster Ovary (CHO) cells transfected with human mGluR4 or HEK cells co-transfected with rat mGluR4 and the G-protein regulated Inwardly Rectifying Potassium channel (GIRK) were plated in clear bottom, assay plates for assay in a Hamamatsu FDSS Fluorometric Plate Reader. The cells were loaded with either a Ca2+-sensitive fluorescent dye or the thallium responsive dye and the plates were washed and placed into a suitable kinetic plate reader. For human mGluR4 assays, a fluorescence baseline was established for 3-5 seconds, the disclosed compounds were then added to the cells, and the response in cells was measured. Approximately two and a half minutes later, a concentration of mGluR4 orthosteric agonist (e.g. glutamate, L-AP4, or L-SOP) eliciting approximately 20% (EC20) of the maximal agonist response was added to the cells, and the response was measured. Two minutes later, a concentration of mGluR4 agonist (e.g. glutamate, L-AP4, or L-SOP) eliciting 80% (EC80) of the maximal agonist response was added to the cells, and the response was measured. […]

SMILES	EC50 [nM]
O=C(Nc1ccc2c(OCC3CCOC3)ncc(F)c2c1)c1ncccc1O (centres unmarked)	158
CC1(C)CC(COc2nccc3cc(NC(=O)c4ncccc4O)ccc23)CO1 (centres unmarked)	457
